Laboratory results published in patent US11564923B2, “Compounds and pharmaceutical compositions thereof for the treatment of inflammatory disorders” (Galapagos NV, priority 2017, dated 2023).

Test system: IL-12 activation of STAT4 in NK-92 cells
Assay: IL-12 activation of STAT4 in NK-92 cells using AphaLISA SureFire technology
Format: cell-based
Conditions: Homo sapiens, NK92, AlphaLISA SureFire, average IC50, read-out: IL12 pSTAT4 IC50
Description: IL-2 is added freshly to the medium with each medium refreshment step. Cells are cultured in a humidified incubator at 37° C. 5% CO2.
A subcultured fraction of NK-92 cells is washed once in culture medium without rhIL-2 the day before the experiment and incubated overnight in a culture flask.
5% CO2. […] NK-92 cells are triggered with rhIL-12 for 30 min at 37° C. 5% CO2.
After 30 min of cytokine stimulation the cells are lysed by addition of 15 μL 5× lysis buffer (supplemented with the AlphaLISA kit). After 10 minutes, plates are frozen at −80° C. overnight and the next day the levels of phospho-STAT4 are quantified using the AlphaLISA SureFire ULTRA p-STAT4 (Tyr693) (Perkin Elmer, Catalogue number ALSU-PST4-A10K) according to the manufacturers instructions. AlphaLISA signal (relative light units) is measured using an Envision (Perkin Elmer).
The percentage inhibition is calculated as: […]
RLU(trigger/veh): Relative lumescent signal determined in presence of vehicle and trigger
RLU(test compound): Relative luminescent signal determined in presence of test compounds and trigger
PIN values are plotted for compounds tested in dose-response and IC50 values are derived using GraphPad Prism Software applying non-linear regression (sigmoidal) curve fitting. The data are expressed as the average IC50 from different experiments.

Cc1cc(C#N)ncc1Oc1cc(Nc2ccc(C(=O)N3CC(C(C)(C)O)C3)nn2)c2ncn(C)c2n1 [Compound 111, 5-[7-[[6-[3-(1-hydroxy-1-methyl-ethyl)azetidine-1-carbonyl]pyridazin-3-yl]amino]-3-methyl-imidazo[4,5-b]pyridin-5-yl]oxy-4-methyl-pyridine-2-carbonitrile]
IC50: 393 nM
